Data taken from article PMC7989030 (Journal of medicinal chemistry, 2020).

Target: BRDT BD1 (Homo sapiens, UniProt Q58F21)
Assay: TR-FRET binding assay, isolated recombinant BD

`COc1cc(OC)c2c(=O)cc(-c3cc(C)c(OC[C@@H](O)CN4CCN(C)CC4)c(C)c3)oc2c1` [Compound 43, (S)-2-(4-(2-Hydroxy-3-(4-methylpiperazin-1-yl)propoxy)-3,5-dimethylphenyl)-5,7-dimethoxy-4H-chromen-4-one] was tested, and the IC50 was 2760 ± 237 nM.
